System: mice brain capillary endothelial cells (BCECs)
Test: AMPB uptake by BCECs, HPLC
Type: cell-based
Settings: 40 g/L albumin + 2.16 μM AMPB; 30, 60, 120 and 180 min, each p < 0.01 vs AMPB group
Procedure: The mice brain capillary endothelial cells (BCECs, cat. no. BNCC35187) were purchased from Beijing Beina Chuanglian Biotechnology Research Institute (Beijing, China). BCECs were resuscitated in a constant temperature water bath at 37°C and then inoculated in a petri dish. The cells were cultured with the 1640 medium containing 10% FBS in a 5% CO2 cell incubator at 37°C. The culture medium was changed every other day, and the cells were digested with 0.25% trypsin when they converged and proliferated to form a full layer at the bottom of the dish. 1 mL cell suspensions were seeded in 12-well plates at a density of 1 × 10^5 cells/mL per well. The drug was administered after the cells being completely adherent to the wall. 2.16 μM AMBP solution was prepared with the 1640 medium and then was used to prepare POS solution at concentrations of 2.85 μM, 5.71 μM, and 11.42 μM, 5 μM zosuquidar, 5 μM Ko143, 1 mM elacridar, and 40 g/L albumin solution, respectively.
The cells were randomly divided into the following 8 groups: 2.16 μM AMBP, 2.16 μM AMBP+POS (2.85 μM, 5.71 μM, and 11.42 μM), 2.16 μM AMBP+5 μM zosuquidar, 2.16 μM AMBP+5 μM Ko143, 2.16 μM AMBP+1 mM elacridar, and 2.16 μM AMBP+40 g/L albumin. Three wells were set at each time point in each group and cultured at 37°C. Cell samples were collected at 30 min, 60 min, 120 min, and 180 min after drug administration, respectively. […]

serum albumin: Human albumin (CSL Behring), 40 g/L albumin solution added to BCECs
effect on AMPB uptake by BCECs: strikingly inhibited

— PMC7719495 (BioMed Research International, 2020)
